# Data taken from patent US20080064758A1, “METHOD OF TREATMENT OR PROPHYLAXIS OF DEPRESSION” (MediciNova, Inc., priority 2006, published 2008).
# Chains of the proteins cited; added tags and fusions are not shown.
# UniProt P13945, whole entry: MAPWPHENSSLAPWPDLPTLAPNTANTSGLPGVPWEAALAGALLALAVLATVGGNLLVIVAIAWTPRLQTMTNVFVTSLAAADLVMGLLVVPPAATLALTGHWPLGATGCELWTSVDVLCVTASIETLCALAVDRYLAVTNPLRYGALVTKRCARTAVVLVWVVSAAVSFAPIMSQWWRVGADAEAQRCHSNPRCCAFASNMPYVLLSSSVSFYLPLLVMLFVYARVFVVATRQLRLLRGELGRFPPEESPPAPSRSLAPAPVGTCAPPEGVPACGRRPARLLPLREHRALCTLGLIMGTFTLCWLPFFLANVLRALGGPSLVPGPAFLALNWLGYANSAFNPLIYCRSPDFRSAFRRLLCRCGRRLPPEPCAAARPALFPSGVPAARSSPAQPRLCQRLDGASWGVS
# Counter-ions that a name gives are not always drawn.
# Key:
# β3 adrenergic receptor = β3 adrenergic receptor (Homo sapiens, UniProt P13945); test: β3 adrenergic cellular adenylyl cyclase assay (cAMP accumulation, EIA); conditions: read-out: EC50, agonist-like stimulation of adenylyl cyclase activity; HEK 293 cells, 20 minutes at 37° C., 1 nM to 10 μM, cAMP by EIA; estimated; tested form: maleate
# Experimental: (§1) MN-246 was tested at full-log concentrations ranging from 1 nM to 10 μM for agonism/antagonism in the β3 adrenergic cellular adenylyl cyclase assay in HEK 293 cells and at the same concentrations for potential cytotoxicity in the corresponding β3 adrenergic cytotoxicity assay. Cells were incubated for 20 minutes at 37° C. in Hank's buffered salt solution, with 1 mM MgCl2, 1 mM CaCl2, at a pH of 7.4. Enzyme immunoassay (EIA) was used to measure cAMP accumulation. The compound MN-246 caused agonist-like stimulation of adenylyl cyclase activity with an estimated EC50 of 76 nM.
# HEK 293 cells = test: β3 adrenergic cytotoxicity assay; conditions: 1 nM to 10 μM; tested form: maleate
# Experimental: as §1
structure (smiles),measurement,setting,value
"CCOC(=O)COc1cccc([C@@H]2CCC[C@@H](NC[C@H](O)c3cccc(Cl)c3)C2)c1 [Compound A, 3-[(1R,3R)-3-[(2R)-2-(3-chlorophenyl)-2-hydroxyethylamino]cyclohexyl]-phenoxy acetic acid ethyl ester, maleate salt]",EC50,β3 adrenergic receptor,76 nM
same,cytotoxicity,HEK 293 cells,No cytotoxicity was observed
